Test results taken from patent US20210009674A1.

What was measured:
Test in all cases: cell-based or functional assay
[1] = target: IL-1β from rhesus monkey (rhesus monkey) (UniProt P48090)
[2] = target: recombinant human IL-1β (human) (UniProt P01584)
IL-1β from mouse (mouse) = IL-1β from mouse (mouse) (UniProt P10749)
[3] = target: TNFα from rhesus monkey (rhesus monkey) (UniProt P48094)

anti-TNFα and IL-1β bispecific IgG1 antibody TAVO3334×5332 (bispecific antibody)
< 2: inhibition of IL-1β-induced IL-6 release from MRC-5 cells (1 ng/ml IL-1β) (fold less potency compared to TAVO5332) [1] | inhibition of IL-1β-induced IL-6 release from MRC-5 cells (1 ng/ml IL-1β) (fold less potency compared to TAVO5332) [2] | inhibition of IL-1β-induced IL-6 release from MRC-5 cells (10 ng/ml IL-1β) (fold less potency compared to TAVO5332) (IL-1β from mouse (mouse)) | neutralization of TNFα cytotoxicity to WEHI cells (MTT assay, 10 ng/mL TNFα) (fold less potency relative to TAVO3334) [3]
